Chains of the proteins cited; added tags and fusions are not shown. Residues count along the entry.
UniProt Q15116, 21-288: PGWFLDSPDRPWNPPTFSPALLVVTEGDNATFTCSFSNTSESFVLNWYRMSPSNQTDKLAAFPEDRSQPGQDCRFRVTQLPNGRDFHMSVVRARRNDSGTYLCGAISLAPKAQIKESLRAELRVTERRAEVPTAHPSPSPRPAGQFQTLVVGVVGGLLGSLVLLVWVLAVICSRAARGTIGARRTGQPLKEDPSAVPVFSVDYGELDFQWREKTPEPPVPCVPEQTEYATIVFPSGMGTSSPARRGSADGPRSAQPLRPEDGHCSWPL

According to patent US12534531 (MacroGenics, dated 2026):

Assays:
[1] = target: T1, human PD-1 expressed on the surface of cells (NSO cells expressing human PD-1; MNFAT-luc2/PD-1 Jurkat cells) (human, UniProt Q15116 21-288); experiment: FACS saturation binding to NSO cells expressing PD-1; SM; SD 1.4850
T1 construct: also called cell surface PD-1; PDCD1 transfected NSO cells expressing PD-1

[2] = target: T1, human PD-1 expressed on the surface of …; experiment: FACS: inhibition of sPD-L1 binding to PD-1 on NSO cells; SM; SD 0.3097
[3] = target: T1, human PD-1 expressed on the surface of …; experiment: FACS: inhibition of sPD-L2 binding to PD-1 on NSO cells; SM; SD 1.8250

EC50 [1]: 2130 nM
IC50 [2]: 1750 nM
IC50 [3]: 2840 nM
B1: DART 1 (bispecific antibody, human IgG1, kappa, L234A L235A)
chain 1: EIVLTQSPATLSLSPGERATLSCRASQSISSYLAWYQQKPGQAPRLLIYDASNRATGIPARFSGSGSGTDFTLTISSLEPEDFAVYYCQQRSNWPLTFGQGTNLEIKGGGSGGGGQVQLVESGGGVVQPGRSLRLDCKASGITFSNSGMHWVRQAPGKGLEWVAVIWYDGSKRYYADSVKGRFTISRDNSKNTLFLQMNSLRAEDTAVYYCATNDDYWGQGTLVTVSSLGGGSGASTKGPSVFPLAPSSKSTSGGTAALGCLVKDYFPEPVTVSWNSGALTSGVHTFPAVLQSSGLYSLSSVVTVPSSSLGTQTYICNVNHKPSNTKVDKRVEPKSCDKTHTCPPCPAPEAAGGPSVFLFPPKPKDTLYITREPEVTCVVVDVSHEDPEVKFNWYVDGVEVHNAKTKPREEQYNSTYRVVSVLTVLHQDWLNGKEYKCKVSNKALPAPIEKTISKAKGQPREPQVYTLPPSREEMTKNQVSLTCLVKGFYPSDIAVEWESNGQPENNYKTTPPVLDSDGSFFLYSKLTVDKSRWQQGNVFSCSVMHEALHNHYTQKSLSLSPG
chain 2: EIVLTQSPATLSLSPGERATLSCRASQSVSSYLAWYQQKPGQAPRLLIYDASNRATGIPARFSGSGSGTDFTLTISSLEPEDFAVYYCQQSSNWPRTFGQGTKVEIKGGGSGGGGQVQLQQWGAGLLKPSETLSLTCAVYGGSFSDYYWNWIRQPPGKGLEWIGEINHNGNTNSNPSLKSRVTLSLDTSKNQFSLKLRSVTAADTAVYYCAFGYSDYEYNWFDPWGQGTLVTVSSLGGGSGRTVAAPSVFIFPPSDEQLKSGTASVVCLLNNFYPREAKVQWKVDNALQSGNSQESVTEQDSKDSTYSLSSTLTLSKADYEKHKVYACEVTHQGLSSPVTKSFNRGEC
